This is an account of results in publication PMC5952519, “Screening a repurposing library, the Medicines for Malaria Venture Stasis Box, against Schistosoma mansoni” (Parasites & Vectors, 2018).

SMILES strings stand for the structures.

Assay [1] relates to newly transformed schistosomula (NTS) of Schistosoma mansoni. The assay can be described thus: In vitro assay on newly transformed schistosomula (NTS), viability scoring by microscopy. The settings on record: 72 h, read-out: NTS IC50.
Assay [2] concerns adult S. mansoni. The assay can be described thus: In vitro assay on adult S. mansoni worms, viability scoring by microscopy. The settings on record: Schistosoma mansoni, 72 h, read-out: Adult IC50.
In assay [3] the test system is adult S. mansoni. The assay can be described thus: In vitro assay on adult S. mansoni worms in albumin-enriched medium (45 g/l). The settings on record: Schistosoma mansoni, 48 h, read-out: Adult IC50 with albumin.
A further assay has as its system MRC5 cells. The assay can be described thus: Cytotoxicity on MRC5 cells (values provided by MMV). In kind it is cell-based. Particulars: CC50 on MRC5 cells (provided by MMV) divided by IC50 on the parasites.

What is called IC50 is the concentration that inhibits the measured activity by half. For the molecule `Nc1nc2ccc(Cl)cc2c2nc(-c3ccco3)nn12` [MMV001539], the IC50 in assay [1] turned out to be 1700 nM.

For `COc1ccc(NC(=O)c2ccc(-c3ccc(-c4noc(C)n4)cc3C)cc2)cc1N1CCN(C)CC1` [MMV003452], the IC50 in assay [1] amounted to 1200 nM; in the assay with adult S. mansoni [2], 2700 nM; in the assay on adult S. mansoni [3] it was 12000 nM. Besides, the “MRC5 cells SI (selectivity index)” value in the assay with MRC5 cells was 0.7.

`O=C(O)Cc1cccc(OCCCN(Cc2cccc(C(F)(F)F)c2Cl)CC(c2ccccc2)c2ccccc2)c1` [MMV690466]: the IC50 in assay [1] stood at 2100 nM.

Consider `Fc1ccc(Cl)cc1-c1nc(Nc2ccncc2)c2nccnc2n1` [MMV690534], for which the IC50 in assay [1] was found to be 7200 nM; in the assay with adult S. mansoni [2], 7500 nM.

Consider `CC#CC(=O)Nc1ccc2ncnc(Nc3cccc(Br)c3)c2c1` [MMV690684], for which the 50% inhibitory concentration (IC50) in the assay with adult S. mansoni [2] is 3700 nM.

As to `CNCc1ccc(C)c(NC(=O)c2ccc(Nc3nc(-c4ccccc4)c4ccccc4n3)cc2)c1` [MMV690732], the IC50 in assay [1] turned out to be 3500 nM; in the assay with adult S. mansoni [2], 2500 nM. Besides, in the assay with MRC5 cells, the “MRC5 cells SI (selectivity index)” value turned out to be 0.7.

Take `CCOc1cc2ncc(C#N)c(Nc3ccc(F)c(Cl)c3)c2cc1NC(=O)/C=C/CN(C)C` [MMV690765, Pelitinib]: the IC50 with adult S. mansoni [2] stood at 2900 nM.
